Protein sequences, listed by entry. Tags and fused reporters are not part of them. Lines headed by an entry give the natural chain unless they say otherwise; changes in a name come on top. Residues count along the entry.
UniProt Q03181, 211-439 limits assumed: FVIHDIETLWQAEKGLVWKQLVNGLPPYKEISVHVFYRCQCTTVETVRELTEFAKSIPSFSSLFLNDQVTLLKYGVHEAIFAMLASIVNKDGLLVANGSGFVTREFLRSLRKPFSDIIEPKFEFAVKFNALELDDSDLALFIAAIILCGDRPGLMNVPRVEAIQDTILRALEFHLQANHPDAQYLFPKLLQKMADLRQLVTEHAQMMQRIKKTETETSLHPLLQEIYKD
UniProt Q07869, 239-466 limits assumed: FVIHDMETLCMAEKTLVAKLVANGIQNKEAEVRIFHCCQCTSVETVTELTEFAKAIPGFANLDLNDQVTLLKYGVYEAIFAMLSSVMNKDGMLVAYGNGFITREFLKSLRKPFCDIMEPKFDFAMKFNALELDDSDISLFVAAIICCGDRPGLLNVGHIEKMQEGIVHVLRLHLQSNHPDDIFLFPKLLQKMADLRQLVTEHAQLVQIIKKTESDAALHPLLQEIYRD
UniProt P37231, 238-503 limits assumed: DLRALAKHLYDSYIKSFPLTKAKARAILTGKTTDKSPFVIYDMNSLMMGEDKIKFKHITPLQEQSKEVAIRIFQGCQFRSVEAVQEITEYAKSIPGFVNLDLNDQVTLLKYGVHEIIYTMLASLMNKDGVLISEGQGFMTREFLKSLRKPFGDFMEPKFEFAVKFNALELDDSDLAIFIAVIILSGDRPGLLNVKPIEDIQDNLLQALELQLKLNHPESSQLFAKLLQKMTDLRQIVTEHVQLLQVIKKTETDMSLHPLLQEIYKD

According to US12522569B2, “Substituted benzimidazole derivative and use thereof” (Chengdu FANXI Biopharma Co., Ltd., priority 2020, dated 2026):

Tests used:
hPPARδ (LBD) = hPPARδ (LBD) (Homo sapiens, UniProt Q03181); test: GAL4-hPPARδ (LBD) luciferase reporter transactivation in CV-1 cells; conditions: read-out: PPAR activities EC50 PPARδ, about 40 hours, relative to GW-501516 as 100%
hPPARα (LBD) = hPPARα (LBD) (Homo sapiens, UniProt Q07869); test: GAL4-hPPARα (LBD) luciferase reporter transactivation in CV-1 cells; conditions: read-out: PPAR activities EC50 PPARα, about 40 hours, relative to GW-590735 as 100%
hPPARγ (LBD) = hPPARγ (LBD) (Homo sapiens, UniProt P37231); test: GAL4-hPPARγ (LBD) luciferase reporter transactivation in CV-1 cells; conditions: read-out: PPAR activities EC50 PPARγ, about 40 hours, relative to Rosiglitazone as 100%

| SMILES | EC50 (hPPARδ (LBD)) [µM] | EC50 (hPPARα (LBD)) [µM] | EC50 (hPPARγ (LBD)) [µM] |
| --- | --- | --- | --- |
| CCc1cc(COc2ccccc2Cc2nc3cc(Br)ccc3n2CCN2CCCC2)ccc1CCC(=O)O | 0.66 | 0.123 | 4.37 |
| CCc1cc(COc2ccc(Cc3nc4ccccc4n3CCN3CCCC3)cc2)ccc1CCC(=O)O | 21 | 1.06 | 6.59 |
| CCc1cc(COc2ccccc2Cc2nc3ccccc3n2CCN2CCCC2)ccc1CCC(=O)O | 4.77 | 0.0936 | 9.2 |

Some compounds may have been tested in ways that are not shown here.
